Test results published in patent US5648237A, “Expression of functional antibody fragments” (Genentech, Inc., priority 1995, dated 1997).

How the values were obtained:
SK-BR-3 cells = assay: anti-proliferative activity with breast carcinoma SK-BR-3 cells; type: cell-based, human
[1] = blocking of the anti-proliferative activity of muMAb4D5; type: cell-based; conditions: monovalent Fab fragment
[2] = tested on: human tumor cell lines overexpressing p185^HER2; conditions: cited from earlier work
p185^HER2 ECD = p185^HER2 ECD binding affinity; parameters: species or system human

Row | Substance | anti-proliferative activity with SK-BR-3 cells (in words) (SK-BR-3 cells) | blocking of the anti-proliferative activity of the bivalent parent antibody muMAb4D5 (in words) [1] | growth inhibition / anti-proliferative activity against p185^HER2 overexpressing tumor cells (in words) [2] | binding affinity for p185^HER2 ECD compared with F(ab')2 from proteolysis of intact antibody (in words) (p185^HER2 ECD; listed as F(ab')2) | binding affinity for p185^HER2 ECD compared with F(ab')2 from proteolysis of intact antibody (in words) (p185^HER2 ECD; listed as huMAb4D5-8 F(ab')2) | anti-proliferative activity with SK-BR-3 cells (in words) (SK-BR-3 cells; listed as F(ab')2)
1 | Fab: monovalent Fab fragment of humanized anti-p185HER2 antibody huMAb4D5-8, secreted from E. coli | does not significantly affect the growth | possible to block the anti-proliferative activity |  |  |  | 
2 | huMAb4D5-8: humanized version of monoclonal antibody 4D5 against p185HER2, intact bivalent antibody derived from 293 cells |  |  | comparable anti-proliferative activity |  |  | 
3 | F(ab')2 E. coli: bivalent F(ab')2 of huMAb4D5-8 formed in vitro by coupling E. coli derived Fab'-SH with Fab'-TNB | identical anti-proliferative activity |  |  | indistinguishable | identical | indistinguishable

Where two headings read alike, the source gives them in different places.
